Where a name gives a salt, the structure may show the parent alone.
Biological target: IRAK4 (Homo sapiens, UniProt Q9NWZ3)
Assay: Degradation of IRAK4 in THP1 cells, Western blot
Format: cell-based
Set-up: Degradation of IRAK4 in THP1 by compound; host or cells: THP-1
Conditions: for Dmax: THP-1

Amino acid sequences for entries named in this document (tags omitted).
UniProt Q9NWZ3, whole entry: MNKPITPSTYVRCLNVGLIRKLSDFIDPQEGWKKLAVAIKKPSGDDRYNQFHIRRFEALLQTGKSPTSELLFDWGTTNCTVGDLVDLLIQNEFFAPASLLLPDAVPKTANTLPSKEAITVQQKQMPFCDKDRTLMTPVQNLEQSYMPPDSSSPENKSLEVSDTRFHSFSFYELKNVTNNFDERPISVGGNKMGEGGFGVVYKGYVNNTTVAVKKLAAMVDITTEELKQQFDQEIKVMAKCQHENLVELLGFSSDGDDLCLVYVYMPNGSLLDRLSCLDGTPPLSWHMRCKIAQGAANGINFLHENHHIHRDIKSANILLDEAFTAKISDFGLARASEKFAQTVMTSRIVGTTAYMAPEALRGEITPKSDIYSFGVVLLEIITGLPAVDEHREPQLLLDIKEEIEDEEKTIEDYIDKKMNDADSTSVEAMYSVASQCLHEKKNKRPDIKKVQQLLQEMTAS

| SMILES | DC50 | Dmax |
| --- | --- | --- |
| COc1ccc(C(=O)N2CCC(CCN3CCN(c4ccc(-n5cc(NC(=O)c6cccc(C(F)(F)F)n6)c(C(N)=O)n5)cc4)CC3)C(F)(F)C2)cc1N1CCC(=O)NC1=O (stereo not drawn) [Compound A168] | < 100 nM | > 60% |
| NC(=O)c1nn(-c2ccc(N3CCN(CC4CCN(c5ccc(C(=O)NC6CCC(=O)NC6=O)cc5)CC4)CC3)cc2)cc1NC(=O)c1cccc(C(F)(F)F)n1 (stereo not drawn) [Compound A171] | 100 to 1000 nM | > 60% |
| NC(=O)c1nn(-c2ccc(N3CCN(CCN4CCN(c5ccc6c(c5)C(=O)N(C5CCC(=O)NC5=O)C6=O)CC4)CC3)cc2)cc1NC(=O)c1cccc(C(F)(F)F)n1 (stereo not drawn) [Compound A173] | < 100 nM | > 60% |
| NC(=O)c1nn(-c2ccc(N3CCN(CCC4CCN(c5ccc(NC6CCC(=O)NC6=O)cc5F)CC4)CC3)cc2)cc1NC(=O)c1cccc(C(F)(F)F)n1 (stereo not drawn) [Compound A194, N-(3-Carbonyl-1-(4-(4-(2-(4-(((2,6-dioxopiperidin-3-yl)amino)-2-fluorophenyl)piperidin-4-yl)ethyl)piperazin-1-yl)phenyl)-1H-pyrazol-4-yl)-6-(trifluoromethyl)picolinamide] | < 100 nM | 40 to 60% |
| NC(=O)c1nn(-c2ccc(N3CCN(CC4CCN(c5ccc(NC6CCC(=O)NC6=O)cc5F)CC4)CC3)cc2)cc1NC(=O)c1cccc(C(F)(F)F)n1 (stereo not drawn) [Compound A195] | < 100 nM | > 60% |
| COc1ccc(C(=O)N2CCC(CN3CCN(c4ccc(-n5cc(NC(=O)c6cccc(C(F)(F)F)n6)c(C(N)=O)n5)cc4)CC3)C2)cc1N1CCC(=O)NC1=O (stereo not drawn) [Compound A303] | < 100 nM | > 60% |
| Cn1c(=O)n(C2CCC(=O)NC2=O)c2ccc(N3CCC(CCN4CCN(c5ccc(-n6cc(NC(=O)c7cccc(C(F)(F)F)n7)c(C(N)=O)n6)cc5)CC4)C3)cc21 (stereo not drawn) [Compound A307, N-(3-Carbamoyl-1-(4-(4-(2-(1-(2,6-dioxopiperidin-3-yl)-3-methyl-2-oxo-2,3-dihydro-1H-benzo[d]imidazol-5-yl)pyrrolidin-3-yl)ethyl)piperazin-1-yl)phenyl)-1H-pyrazol-4-yl)-6-(trifluoromethyl)picolinamide formate] | < 100 nM | > 60% |
| COc1ccc(C(=O)N2CCC(OC(=O)N3CCN(c4ccc(-n5cc(NC(=O)c6cccc(C(F)(F)F)n6)c(C(N)=O)n5)cc4)CC3)C(F)(F)C2)cc1N1CCC(=O)NC1=O (stereo not drawn) [Compound A308] | < 100 nM | > 60% |
| CC(C)(O)c1nn(-c2ccc(N3CCN(C4CCN(c5ccc(NC6CCC(=O)NC6=O)cn5)CC4)CC3)cc2)cc1NC(=O)c1cccc(C(F)(F)F)n1 (stereo not drawn) [Compound A441] | < 100 nM | > 60% |
